The series has as its system mice bearing TFK-1-RFP cells. Conditions: mean ± SD; for liver uptake / tumor uptake: n = 3–4/group.
Setting [1] is: TFK-1-RFP-xenografted SCID beige mice, 2.5 h after intravenous injection of 1.85 MBq.

For `[Cu+2]` [Cu^2+ ions, reference compound], under setting [1], the liver uptake worked out at 34.96 ± 2.32 %ID/g and the tumor uptake amounted to 5.98 ± 1.09 %ID/g.

Turning to `[Cl-].[Cl-].[Cu+2].c1ccc(CN(Cc2ccccn2)Cc2ccccn2)nc1` [Cu^2+-TPMA], the liver uptake under setting [1] is 34.58 ± 3.58 %ID/g.

For the compound `NCCN(CCN)CCN.[Cl-].[Cl-].[Cu+2]` [Cu^2+-Tren], under setting [1], the kidney uptake amounted to 10.87 ± 1.98 %ID/g, the liver uptake was 26.38 ± 2.04 %ID/g and the tumor uptake was 13.20 ± 2.65 %ID/g. The compound also returned a urinary excretion (urine collected during the 2.5 h post-administration, intravenous, TFK-1-RFP-xenografted mice) of 7.81 ± 2.54 %ID.

The values are drawn from PMC11280065, “^64Cu^2+ Complexes of Tripodal Amine Ligands’ In Vivo Tumor and Liver Uptakes and Intracellular Cu Distribution in the Extrahepatic Bile Duct Carcinoma Cell Line TFK-1: A Basic Comparative Study” (Pharmaceuticals, 2024).
